Values quoted from earlier work in patent publication US8183280B2, “FAP inhibitors” (Vantia Limited, priority 2005, dated 2012).

Sequences of proteins named here, by UniProt entry; tags and fusion partners are left off.
UniProt P27487, whole entry: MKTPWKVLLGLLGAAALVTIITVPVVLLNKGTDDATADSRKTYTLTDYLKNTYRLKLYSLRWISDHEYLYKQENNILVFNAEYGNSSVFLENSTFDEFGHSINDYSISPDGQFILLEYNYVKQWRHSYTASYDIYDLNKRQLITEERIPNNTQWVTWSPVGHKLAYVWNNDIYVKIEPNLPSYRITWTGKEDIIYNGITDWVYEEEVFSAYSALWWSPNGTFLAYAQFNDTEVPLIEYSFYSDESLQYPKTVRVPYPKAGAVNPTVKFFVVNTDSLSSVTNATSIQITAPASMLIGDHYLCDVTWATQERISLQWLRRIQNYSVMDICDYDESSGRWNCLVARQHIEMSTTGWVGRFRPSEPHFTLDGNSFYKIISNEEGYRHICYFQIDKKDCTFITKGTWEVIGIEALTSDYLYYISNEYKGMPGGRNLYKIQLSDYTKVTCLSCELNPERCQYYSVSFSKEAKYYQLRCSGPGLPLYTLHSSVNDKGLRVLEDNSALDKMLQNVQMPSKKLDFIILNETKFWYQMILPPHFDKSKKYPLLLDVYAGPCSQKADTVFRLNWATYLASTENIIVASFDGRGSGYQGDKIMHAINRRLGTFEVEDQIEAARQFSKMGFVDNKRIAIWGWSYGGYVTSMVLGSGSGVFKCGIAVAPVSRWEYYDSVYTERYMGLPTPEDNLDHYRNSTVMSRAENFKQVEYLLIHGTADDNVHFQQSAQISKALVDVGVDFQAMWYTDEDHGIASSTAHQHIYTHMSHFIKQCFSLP

Target: DPIV (Homo sapiens, UniProt P27487)
Settings: literature report, J. Med. Chem., 1996, 39, 2087

For `CC(C)[C@H](N)C(=O)N1CCC[C@H]1B(O)O` [ValboroPro], the DPIV inhibition is listed as “potent inhibitor of DPIV”.
